Measured values published in PubChem BioAssay AID504720 (Sanford-Burnham Center for Chemical Genomics, 2011).
Only a part is listed here, and it is no random draw. Some tests of the compounds listed are not included; inactive here does not mean inactive elsewhere. The source made the active and inactive calls. Rule as the data show it: active = activation above about 50%; inactive = the rest.

By UniProt entry, the sequences of proteins in these tests, tags left out.
UniProt P0AE70, whole entry, looked up: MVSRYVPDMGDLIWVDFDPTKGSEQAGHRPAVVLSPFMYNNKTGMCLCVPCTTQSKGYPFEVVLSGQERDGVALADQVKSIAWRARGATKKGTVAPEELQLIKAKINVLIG

molecular target: Endoribonuclease toxin MazF (Escherichia coli (strain K12)) (UniProt P0AE70); test: activators of E. coli MazEF toxin-antitoxin RNase, primary screen, biochemical, fluorescence, uHTS (AID 504720); conditions: FAM/BHQ RNA-DNA oligo cleavage fluorescence, 5 h, at 20 µM, stronger effect = higher value

Structure (SMILES) | activation
CC(C)N1C(=O)CC2(CCN(CCOC(=O)C(O)(c3ccccc3)c3ccccc3)CC2)C1=O | inactive: -0.451%
CCN(CC)CC(C)C(C)OC(=O)C(O)(c1ccccc1)c1ccccc1 (stereo unspecified) | inactive: 8.28%
COc1cc(SC)ccc1C(=O)NCC1(N(C)C)CCCCC1 | inactive: -8.43%
Cc1ccc(C(=O)NCC2(N3CCCCC3)CCCCC2)cc1 | inactive: 9.04%
O=C(NCC1(N2CCCCC2)CCCCC1)c1cc([N+](=O)[O-])ccc1Cl | inactive: -4.36%
CN1[C@@H]2CC[C@H]1CC(OC(=O)C(O)(c1ccccc1)c1ccccc1)C2 (stereo partly specified) | inactive: 1.67%
C=CCN1CCN(CCOC(=O)C(O)(c2ccccc2)c2ccccc2)CC1 | inactive: -0.585%
O=C(NCC1(N2CCCCC2)CCCCC1)c1cc(F)c(F)cc1Cl | inactive: -1.03%
CCN1CCCC(OC(=O)C2(O)c3ccccc3C=Cc3ccccc32)C1 (stereo unspecified) | inactive: 5.22%
Cc1cc(C(=O)NCC2(N3CCCCC3)CCCCC2)ccc1[N+](=O)[O-] | inactive: 11.8%
O=C(NCC1(N2CCCCC2)CCCCC1)c1cccc(Br)c1 | inactive: 8.91%
COc1ccc(C(=O)NCC2(N(C)C)CCCCC2)cc1 | inactive: 5.08%
Cc1ccccc1C(=O)NCC1(N2CCCCC2)CCCCC1 | inactive: 8.27%
CN(C)c1ccc(C(=O)NCC2(N(C)C)CCCCC2)cc1 | inactive: 6.84%
CN(C)C1CCCC1OC(=O)C(O)(c1ccccc1)c1ccccc1 (stereo unspecified) | inactive: 6.5%
COc1cccc(C(=O)NCC2(N3CCCCC3)CCCCC2)c1 | inactive: 2.04%
COc1ccc(Cl)cc1C(=O)NCC1(N(C)C)CCCCC1 | inactive: 5.18%
O=C(NCC1(N2CCCCC2)CCCCC1)c1cccc(Cl)c1 | inactive: -8.32%
CN(C)C1(CNC(=O)c2ccc(Br)cc2)CCCCC1 | inactive: -6.33%
COc1cc(C(=O)NCC2(N(C)C)CCCCC2)c([N+](=O)[O-])cc1OC | inactive: 11.6%
COc1ccc(Br)c(C(=O)NCC2(N3CCCCC3)CCCCC2)c1 | inactive: -13.7%
C=C(C)C#CC(O)(C(=O)OC1CCN(C)CC1)c1ccccc1 (stereo unspecified) | inactive: -9.79%
CN(C)c1cccc(C(=O)NCC2(N(C)C)CCCCC2)c1 | inactive: 7.9%
CC(C)Oc1ccc(C(=O)NCC2(N(C)C)CCCCC2)cc1 | inactive: 4.85%
O=C(OCCN1CCCC1)C(O)(c1ccccc1)c1ccccc1 | inactive: 12.1%
O=C(OC1CN2CCC1CC2)C(CO)(c1ccccc1)c1ccccc1 (stereo unspecified) | inactive: 10.9%
